One assay has as its target T1, PPP1R15B-PP1 complex (Homo sapiens, UniProt Q5SWA1).
T1 construct: 340-698 of PPP1R15B were His-tagged and cloned into pMAL-c5x; made in house; host or cells: R15B fragment: E. coli BL21-Gold; BAP-PP1γ: Sf9 insect cells (baculovirus)
The assay can be described thus: SPR steady-state binding to R15B-PP1c holophosphatase on streptavidin chip. The protocol:
(§1) The streptavidin coated surface was activated by 1 min injection with a solution of 50 mM NaOH and 1 M NaCl. Biotin-PP1 was diluted in the running buffer (50 mM Tris pH 7.5, 100 mM NaCl, 0.1 mM EGTA, 1 mM MnCl2, 0.05% Tween 20) and injected at approximately 300 nM concentration directly to streptavidin coated surface for 100 sec or to reach immobilization level of biotin-PP1 corresponding to ˜7000 RU. A blank immobilization was performed for one of the SA sensor chip surface to use as a reference.
(§2) With minor deviations, the same procedure and conditions were used in all binding experiments. Small molecules were stored as 50 mM stock solutions in 100% DMSO. Prior to determining binding constants, serial dilutions of either 12 or 8 concentrations of the compounds were prepared in the running buffer in a 96-well plate. […] Then, without regenerating the surface, the compound dilution series was injected onto the surface of the chip Sensorgrams were analyzed using the Biacore T200 evaluation software and the binding constants determined based on a steady-state model. Kinetic experiments are carried out using different concentrations of the compound and their respective equilibrium binding levels determined.
(§3) Surface Plasmon Resonance (SPR) was used to measure the binding affinity of compounds to the PPP1R15A/B-PP1 phosphatase complex. […]

Protein sequences, listed by entry. Tags and fused reporters are not part of them. Residues count along the entry.
UniProt Q5SWA1, 340-698: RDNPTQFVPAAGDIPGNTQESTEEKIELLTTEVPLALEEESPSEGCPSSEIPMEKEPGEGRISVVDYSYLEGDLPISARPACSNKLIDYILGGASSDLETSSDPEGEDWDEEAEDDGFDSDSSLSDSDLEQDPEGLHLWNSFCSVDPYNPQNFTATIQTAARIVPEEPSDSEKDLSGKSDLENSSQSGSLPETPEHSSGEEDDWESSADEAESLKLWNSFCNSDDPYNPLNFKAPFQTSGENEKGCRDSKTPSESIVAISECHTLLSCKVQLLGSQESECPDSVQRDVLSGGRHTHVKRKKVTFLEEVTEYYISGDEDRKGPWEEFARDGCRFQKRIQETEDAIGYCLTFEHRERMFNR
UniProt O75807, 325-636: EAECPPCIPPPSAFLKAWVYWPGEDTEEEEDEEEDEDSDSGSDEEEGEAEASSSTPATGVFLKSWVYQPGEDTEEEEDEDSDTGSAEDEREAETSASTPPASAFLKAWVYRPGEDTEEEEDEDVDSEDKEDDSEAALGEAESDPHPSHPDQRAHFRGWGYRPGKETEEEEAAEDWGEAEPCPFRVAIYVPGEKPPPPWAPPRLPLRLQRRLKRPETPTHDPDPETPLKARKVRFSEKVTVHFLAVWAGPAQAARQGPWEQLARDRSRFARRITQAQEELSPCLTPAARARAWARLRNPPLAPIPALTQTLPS
UniProt P36873, whole entry partner: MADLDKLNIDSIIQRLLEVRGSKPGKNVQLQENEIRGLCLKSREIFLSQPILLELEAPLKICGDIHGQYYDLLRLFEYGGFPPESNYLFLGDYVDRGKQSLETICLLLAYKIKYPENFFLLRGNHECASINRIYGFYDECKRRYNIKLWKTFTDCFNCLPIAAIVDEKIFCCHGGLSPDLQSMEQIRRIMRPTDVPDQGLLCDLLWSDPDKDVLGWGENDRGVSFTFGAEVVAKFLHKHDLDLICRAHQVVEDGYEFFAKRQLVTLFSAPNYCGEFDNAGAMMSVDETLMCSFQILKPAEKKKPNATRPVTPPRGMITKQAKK

A further assay concerns the target T2, PPP1R15A-PP1 complex (Homo sapiens, UniProt O75807).
T2 construct: the cDNAs encoding amino acids 325-636 of PPP1R15A; made in house; host or cells: R15A fragment: E. coli BL21-Gold; BAP-PP1γ: Sf9 insect cells (baculovirus)
The assay can be described thus: SPR steady-state binding to R15A-PP1c holophosphatase on streptavidin chip. On the procedure:
as §1, §2, §3

Assay [1] has as its target T3, PP1c (Homo sapiens, UniProt P36873). The assay can be described thus: SPR binding to PP1c alone immobilized on chip. The protocol: The streptavidin coated surface was activated by 1 minute injection with a solution of 50 mM NaOH and 1 M NaCl three times at a flow rate of 10 μl/min. bio-GBZ or bio-PP1c was diluted in the running buffer (50 mM Tris pH 7.5, 100 mM NaCl, 0.1 mM EGTA, 0.05% Tween 20, 0.1% DMSO) and injected at approximately 300 nM concentration at a flow rate of 10 μl/min directly to streptavidin coated surface to reach immobilization level of bio-GBZ or bio-PP1c corresponding to ˜200 and 6000 RU, respectively. A blank immobilization was performed for one of the SA sensor chip surface to use as a reference.
With minor deviations, the same procedure and conditions were used in all binding experiments. Small molecules were stored as 50 mM stock solutions in 100% DMSO. Prior to determining binding constants, serial dilutions of either 12 or 8 concentrations of the compounds were prepared in the running buffer in a 96-well plate. […] This was followed by 1 minute stabilization period, to wash off any unspecific binding. Then, without regenerating the surface, the compound dilution series was injected onto the surface of the chip at a flow rate of 30 μl/min for 1 minute, followed by 2 minutes dissociation time. […]
Kinetic experiments are carried out using different concentrations of the compound and their respective equilibrium binding levels determined.

Assay [2] concerns the target T3, PP1c. Description: PP1c catalytic activity assay (EnzChek). It counts as biochemical. The settings on record: purified PP1c 30 nM, 30 minutes at 4° C. The protocol:
Purified PP1c (30 nM) was incubated in 50 mM Tris pH 7, 1.5 mM EGTA, 3 mM MnCl2, 0.01% Brij-35, 0.15% β-mercaptoethanol with indicated concentrations of CalyculinA, GBZ, Sal003, Sephin1 and TST3 for 30 minutes at 4° C. Residual activity of PP1c was then measured using the EnzChek Phosphatase Assay Kit (Thermo Fisher Scientific) according to the supplier's instructions.

Molecules are shown by their SMILES.

The term Kd denotes the equilibrium constant for the complex coming apart. A high value points to a looser complex.

Turning to `NC(N)=N/N=C/c1ccccc1Cl` [Sephin1], at PPP1R15B-PP1 complex, the “binding to R15B-PP1c (in words)” value is “not or weakly”. Further, the results for the Kd on PPP1R15B-PP1 complex (steady-state affinity) and on PPP1R15A-PP1 complex (steady-state affinity) were 23 µM and 0.786 µM, respectively. Further, the “binding to R15A-PP1c (in words)” value at PPP1R15A-PP1 complex is given as “strongly bound”. The “binding to PP1c alone (in words)” value on PP1c [1] was “not to PP1c alone”. Also, on PP1c [2], the “inhibition of PP1c in enzymatic assay” value is “does not inhibit PP1c”.

The values above are taken from patent US11364211B2, “Methods for selecting phosphatase selective and non-selective phosphatase inhibitors” (MEDICAL RESEARCH COUNCIL, priority 2015, dated 2022).
